Reference: PMC12363342, “Investigating the N-terminal linker histone H1 subtypes as substrates for JmjC lysine demethylases” (RSC Chemical Biology, 2025)

Molecular target: T1, KDM4E (Homo sapiens, UniProt B2RXH2)
T1 construct: KDM4DM1-L359,[39]; KDM4EM1-R336,[30]; His6 (N); made in house; host or cells: Escherichia coli
T1 sequence (B2RXH2 1-336): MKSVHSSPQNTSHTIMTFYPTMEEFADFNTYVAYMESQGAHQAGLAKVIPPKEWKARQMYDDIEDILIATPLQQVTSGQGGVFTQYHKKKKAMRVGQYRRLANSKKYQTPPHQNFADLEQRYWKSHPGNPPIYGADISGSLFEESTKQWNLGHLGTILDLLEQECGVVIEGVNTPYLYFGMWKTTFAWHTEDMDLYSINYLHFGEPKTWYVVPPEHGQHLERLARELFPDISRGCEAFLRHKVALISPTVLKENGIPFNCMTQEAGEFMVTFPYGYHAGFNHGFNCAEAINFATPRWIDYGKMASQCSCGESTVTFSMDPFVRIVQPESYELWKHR
Assay: LC-MS demethylation activity assay, KDM4E
Type: biochemical
Conditions: room temperature
Description: The substrate specificity of JmjC KDMs for H1 was examined using liquid chromatography coupled to mass spectrometry (LC-MS) assays. The H1 peptides (10 μM) were incubated with the recombinant KDM (2 μM) in HEPES buffer at pH 7.5 at room temperature for 2 h, in the presence of ferrous(II) ammonium sulfate (FAS, 10 μM), sodium ascorbate (LAA, 100 μM) and 2OG (20 μM), and then quenched with formic acid. N^ε-Methylated H3K9 and H3K36 peptides were used as positive controls (Fig. 3–5 and Fig. S2–S6).[26]
The catalytic domains of the JmjC KDMs used were recombinantly produced as reported in either Escherichia coli (KDM4AM1-L359,[38] KDM4DM1-L359,[39] KDM4EM1-R336,[30] KDM6BD1141–E1590[40] and KDM3CL2157-L2500) or Sf9 cells (KDM3AT515–S1317, KDM3B882–1761, and KDM5DM1-D775) as N-terminally His6-tagged proteins. […] To produce proteins, DNA sequences encoding for KDM3A, KDM3B and KDM5D were inserted into the pFB-LIC vector, containing a TEV-protease cleavable N-terminal 6x-histidine tag via ligation independent cloning (LIC). The resultant plasmids were transformed into baculovirus and Sf9 cells ([…]) which were infected with the virus stock. The cells were grown at 27 °C and 90 rpm for 70 h. Cells were then harvested and suspended in 100 mL of lysis buffer (50 mM HEPES-NaOH, pH 7.4, 500 mM NaCl, 20 mM imidazole, 0.5 mM Tris (2-carboxyethyl)phosphine (TCEP), 5% (v/v) glycerol). […] The supernatant was loaded onto a Ni-NTA gravity column, washed with 10 column volume of lysis buffer and eluted using the elution buffer (50 mM HEPES-NaOH, pH 7.4, 500 mM NaCl, 300 mM imidazole, 0.5 mM TCEP, 5% (v/v) glycerol). The eluted protein was further purified using S200 gel filtration column chromatography (50 mM HEPES-NaOH, pH 7.4, 150 mM NaCl, 0.5 mM TCEP and 5% glycerol). Protein purity was analysed by SDS-PAGE and further confirmed by mass spectrometry. Selected fractions were pooled, concentrated and stored at −80 °C.
All reagents were purchased from Sigma Aldrich and were of the highest grade available. Ferrous(II) ammonium sulfate (FAS) solutions were prepared freshly by dissolving FAS to 400 mM in 20 mM HCl with subsequent dilution to 1 mM using deionized water. Fresh 2OG (10 mM) and LAA (50 mM) solutions were prepared by dissolving the solids in deionised water. All enzyme reactions were performed in 384-well plates (Greiner Bio-One) with a final reaction volume of 50 μL. Substrate mixtures contained 50 mM HEPES pH 7.5, LAA (100 μM), FAS (10 μM), 2OG (20 μM) and an H1 isoform peptide (10 μM). Reactions were initiated by the addition of enzyme to a final concentration of 2.0 μM. After 2 h, the reactions were stopped by the addition of 5 μL of 10% (v/v) LC-MS grade formic acid (Fisher Scientific) to a final concentration of 1% (v/v). Product analyses were performed by liquid chromatography-mass spectrometry (LC-MS) using an Agilent 1290 infinity II LC system equipped with an Agilent 1290 multisampler and an Agilent 1290 high speed pump and connected to an Agilent 6550 accurate mass iFunnel quadrupole time of flight (Q-TOF) mass spectrometer. 1 μL of the reaction mixture was injected onto a 1.8 μm × 2.1 × 50 mm ZORBAX RRHD Eclipse Plus C18 column (Agilent). Solvent A consisted of HPLC grade water containing 0.1% (v/v) formic acid and solvent B consisted of MeCN containing 0.1% (v/v) formic acid. Peptides were separated using a stepwise gradient (0 min – 95% solvent A, 1.0 min – 80% solvent A, 3.0 min – 45% solvent A, 4.0 min – 45% solvent A, 5.0 min – 0% solvent A, 6.0 min – 0% solvent A, 7.0 min – 95% solvent A). This was followed by a 3 min post-run with 95% solvent A to re-equilibrate the column. All flow rates were 0.2 mL min^−1.

[1] = 2 μM KDM4E, 10 μM peptide, standard conditions, 2 h

ARTKQTARKme3STGGKA [Peptide H3K9me3, histone H3 residues 1-15 peptide with tri-methylated K9; commercial positive control, reference compound]
di-methylated product formed by KDM4E [1]: ~25% | mono-methylated product formed by KDM4E [1]: ~29% | KDM4E demethylation activity, T (2 μM KDM, 10 μM H1/H3 peptide, 10 μM FAS, 100 μM LAA, 20 μM 2OG, 50 mM HEPES pH 7.5, 2 h, T (tri-) initial methylation state): ● [green] (green dots indicate good demethylation (>50% conversion))
